Consider one molecule from ChEMBL document CHEMBL4303101, “Identification of inhibitors of SARS-CoV-2 in-vitro cellular toxicity in human (Caco-2) cells using a large scale drug repurposing collection” (2020).

The subject of this assay is SARS-CoV-2. As to conditions: Homo sapiens; Caco-2; 10 uM.

On to `CN(CCCl)CCCl`, for which the inhibition is -2.61%.

A word on the inhibition: it is the drop in the measured response relative to a control, in per cent.
